Experimental data published in US10172797B2, “Extruded extended release abuse deterrent pill” (Pharmaceutical Manufacturing Research Services, Inc., priority 2013, dated 2019).

Key:
[1] = Alcohol solubility tested (200 proof ethanol, 0.22 micrometer PTFE filter); type: physicochemical
Description: The following table lists the relative solubility of exemplary components of a formulation. A number of different dyes are listed along with their solubility information taken from the various literature sources and tested experimentally (200 proof ethanol and filtered through a 0.22 micrometer PTFE filter).

[2] = cited from earlier work

O=S(=O)([O-])c1ccc(N=Nc2c(O)ccc3cc(S(=O)(=O)[O-])ccc23)cc1.[Na+].[Na+] [Yellow #6]
Yes: Alcohol Solubility (tested) [1] | Alcohol Solubility (Literature) [2] | Water Solubility [2]
